What was measured:
Type in all cases: cell-based
[1] = molecular target: Sodium/hydrogen exchanger 1 (Rattus norvegicus) (UniProt P26431); test: Inhibition of rat NHE1 expressed in Chinese hamster ovary cells (AP-1) at >10 uM measured after 9 mins by BCECF-AM staining based NH4Cl pre-pulse method relative to control
[2] = molecular target: Sodium/hydrogen exchanger 1 (Rattus norvegicus) (UniProt P26431); test: Inhibition of rat NHE1 expressed in Chinese hamster ovary cells (AP-1) at >500 uM measured after 9 mins by BCECF-AM staining based NH4Cl pre-pulse method relative to control
[3] = molecular target: Sodium/hydrogen exchanger 1 (Rattus norvegicus) (UniProt P26431); test: Inhibition of rat NHE1 expressed in Chinese hamster ovary cells (AP-1) at >50 uM measured after 9 mins by BCECF-AM staining based NH4Cl pre-pulse method relative to control
[4] = molecular target: Sodium/hydrogen exchanger 1 (Rattus norvegicus) (UniProt P26431); test: Inhibition of rat NHE1 expressed in Chinese hamster ovary cells (AP-1) at >300 uM measured after 9 mins by BCECF-AM staining based NH4Cl pre-pulse method relative to control
[5] = molecular target: Sodium/hydrogen exchanger 1 (Rattus norvegicus) (UniProt P26431); test: Inhibition of rat NHE1 expressed in Chinese hamster ovary cells (AP-1) at >100 uM measured after 9 mins by BCECF-AM staining based NH4Cl pre-pulse method relative to control

Chains of the proteins cited; added tags and fusions are not shown.
UniProt P26431, whole entry: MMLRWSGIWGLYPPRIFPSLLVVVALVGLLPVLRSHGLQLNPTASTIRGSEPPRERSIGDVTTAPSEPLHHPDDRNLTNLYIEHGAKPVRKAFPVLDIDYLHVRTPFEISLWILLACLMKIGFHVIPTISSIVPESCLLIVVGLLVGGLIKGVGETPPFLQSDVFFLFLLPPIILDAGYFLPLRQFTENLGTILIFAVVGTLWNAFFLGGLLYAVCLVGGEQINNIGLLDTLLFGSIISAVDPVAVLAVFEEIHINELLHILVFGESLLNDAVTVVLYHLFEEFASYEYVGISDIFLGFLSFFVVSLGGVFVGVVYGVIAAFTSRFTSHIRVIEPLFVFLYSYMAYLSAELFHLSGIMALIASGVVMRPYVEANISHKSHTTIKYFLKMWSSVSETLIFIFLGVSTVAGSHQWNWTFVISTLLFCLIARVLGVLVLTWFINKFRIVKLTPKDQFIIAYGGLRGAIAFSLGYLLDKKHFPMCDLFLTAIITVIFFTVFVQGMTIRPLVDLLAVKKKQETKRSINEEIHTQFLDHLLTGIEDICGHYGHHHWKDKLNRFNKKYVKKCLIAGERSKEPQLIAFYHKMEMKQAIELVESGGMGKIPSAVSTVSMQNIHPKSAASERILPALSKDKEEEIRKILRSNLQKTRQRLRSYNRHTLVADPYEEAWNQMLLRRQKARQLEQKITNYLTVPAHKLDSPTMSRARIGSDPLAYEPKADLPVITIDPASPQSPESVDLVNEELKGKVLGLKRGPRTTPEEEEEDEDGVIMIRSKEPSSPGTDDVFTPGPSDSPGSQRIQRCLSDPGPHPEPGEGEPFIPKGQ

Compound | inhibition [2] [%] | inhibition [5] [%] | further results
CN(CCO)c1nc(N)c(C(=O)NC(=N)N)nc1-c1ccc(C(F)(F)F)cc1 | – | – | inhibition [1]: 21%
CN(CCO)c1nc(N)c(C(=O)NC(=N)N)nc1Cl | 2.8 | – | –
CN(CCO)c1nc(N)c(C(=O)NC(=N)N)nc1-c1ccc(Br)cc1 | – | – | inhibition [3]: 30%
CN(CCO)c1nc(N)c(C(=O)NC(=N)N)nc1-c1ccc(C(F)(F)F)cc1C(F)(F)F | – | – | inhibition [4]: 48%
CN(CCO)c1nc(N)c(C(=O)NC(=N)N)nc1-c1ccc(Cl)cc1 | – | 41 | –
CN(CCO)c1nc(N)c(C(=O)NC(=N)N)nc1-c1ccc(Cl)cc1Cl | – | 28 | –
CN(CCO)c1nc(N)c(C(=O)NC(=N)N)nc1-c1ccccc1 | 44 | – | –
CCCc1ccc(-c2nc(C(=O)NC(=N)N)c(N)nc2N(C)CCO)cc1 | – | 20 | –
Cc1cccc(-c2nc(C(=O)NC(=N)N)c(N)nc2N(C)CCO)c1 | 43 | – | –

From ChEMBL document CHEMBL5523685, “Development of UTX-143, a selective sodium-hydrogen exchange subtype 5 inhibitor, using amiloride as a lead compound” (Bioorg Med Chem, 2024)
